Measurements from PMC4042638 (The Journal of Experimental Medicine, 2014).

Protein sequences, listed by entry. Tags and fused reporters are not part of them. Residues count along the entry.
UniProt P02671, 36-866, chain 1 of 3: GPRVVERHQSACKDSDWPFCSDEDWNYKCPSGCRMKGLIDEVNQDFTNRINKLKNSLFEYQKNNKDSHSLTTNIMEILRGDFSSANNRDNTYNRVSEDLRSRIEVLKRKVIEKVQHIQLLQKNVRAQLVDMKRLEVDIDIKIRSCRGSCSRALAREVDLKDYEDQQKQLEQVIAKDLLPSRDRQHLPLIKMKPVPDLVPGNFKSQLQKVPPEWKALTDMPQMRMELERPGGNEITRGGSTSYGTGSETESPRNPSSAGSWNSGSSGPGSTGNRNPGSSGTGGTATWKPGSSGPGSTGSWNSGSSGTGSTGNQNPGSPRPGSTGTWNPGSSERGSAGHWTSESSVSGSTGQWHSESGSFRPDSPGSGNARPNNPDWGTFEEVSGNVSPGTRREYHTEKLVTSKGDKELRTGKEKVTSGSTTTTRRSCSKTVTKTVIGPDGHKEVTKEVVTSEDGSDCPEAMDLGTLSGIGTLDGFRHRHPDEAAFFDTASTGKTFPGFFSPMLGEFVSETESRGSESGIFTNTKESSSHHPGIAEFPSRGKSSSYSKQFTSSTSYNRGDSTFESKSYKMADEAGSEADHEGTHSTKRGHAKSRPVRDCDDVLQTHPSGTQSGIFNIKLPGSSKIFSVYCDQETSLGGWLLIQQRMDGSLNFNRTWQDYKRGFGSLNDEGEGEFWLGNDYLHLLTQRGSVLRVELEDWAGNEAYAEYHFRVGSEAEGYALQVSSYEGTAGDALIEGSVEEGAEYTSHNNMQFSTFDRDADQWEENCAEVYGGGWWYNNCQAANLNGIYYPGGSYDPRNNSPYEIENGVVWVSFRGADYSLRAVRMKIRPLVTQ

Experiments:
fibrinogen (human) [1] = molecular target: fibrinogen (human) (UniProt P02671)
fibrinogen (human) [2] = molecular target: fibrinogen (human) (UniProt P02671); test: AlphaScreen or HTRF

| Substance | affinity relative to Aβ42 (fold lower) (fibrinogen (human) [1]) [times] | affinity relative to the monomer (fold higher) (fibrinogen (human) [2]) [times] |
| --- | --- | --- |
| Aβ40 (from UniProt P05067) (peptide) | 10 | – |
| oligomeric biotin-LC-Aβ42 (from UniProt P05067) (peptide) | – | 4 |
